In publication PMC8533160, “First Crystal Structure of Bacterial Oligopeptidase B in an Intermediate State: The Roles of the Hinge Region Modification and Spermine” (Biology, 2021) one finds Km, kcat and kcat/Km data, which are given here for three substances.

Holding throughout (experiment): purified protein
What all share (conditions): 0.1 M Tris-HCl, pH 8.0, 2% DMSO, 25 °C

In data set [1] the test system is N=C(N)NCCC[C@H](NC(=O)[C@H](CCCCN)NC(=O)OCc1ccccc1)C(=O)Nc1ccc([N+](=O)[O-])cc1.
Data set [2] concerns N=C(N)NCCCC(NC(=O)c1ccccc1)C(=O)Nc1ccc([N+](=O)[O-])cc1.
The subject of data set [3] is N=C(N)NCCC[C@H](NC(=O)OCc1ccccc1)C(=O)N[C@@H](CCCNC(=N)N)C(=O)Nc1ccc([N+](=O)[O-])cc1.

As for “PSP (oligopeptidase B from Serratia proteomaculans) (Serratia proteamaculans; E125A/E75F/H76Q/I71E/P72N/Q73L/Q74Y)”, in data set [1], the Km is given as 11.6 µM, the kcat worked out at 8.22 s⁻¹ and the specificity constant (kcat/Km) worked out at 708000 M⁻¹ s⁻¹. In data set [2], the Km was found to be 265.6 µM, the kcat is 12.1 s⁻¹ and the specificity constant (kcat/Km) is 45700 M⁻¹ s⁻¹.
Regarding “PSP (oligopeptidase B from Serratia proteomaculans) (Serratia proteamaculans; E75F/H76Q/I71E/P72N/Q73L/Q74Y)”, in data set [1], the Michaelis-Menten constant (Km) is reported as 124.4 µM, the kcat came out at 9.88 s⁻¹ and the catalytic efficiency (kcat/Km) came out at 79500 M⁻¹ s⁻¹. In data set [3], the Km came to 11.18 µM, the kcat was 2.62 s⁻¹ and the kcat/Km is 235000 M⁻¹ s⁻¹. Besides, in data set [2], the Km worked out at 188.8 µM, the kcat is 1.53 s⁻¹ and the kcat/Km is 8170 M⁻¹ s⁻¹.
For “PSP (oligopeptidase B from Serratia proteomaculans) (Serratia proteamaculans; H76Q/I71E/P72N/Q73L/Q74Y)”, in data set [1], the Km came to 24.0 µM, the kcat stood at 13.4 s⁻¹ and the kcat/Km was 560000 M⁻¹ s⁻¹. Also, in data set [3], the Michaelis-Menten constant (Km) was 34.65 µM, the kcat was determined as 16 s⁻¹ and the kcat/Km was determined as 462000 M⁻¹ s⁻¹. In addition, in data set [2], the Km came to 165.5 µM, the kcat turned out to be 10.1 s⁻¹ and the kcat/Km stood at 60700 M⁻¹ s⁻¹.
